Common to all, as to assay: relative viability (nuclei count vs DMSO), 5 days (fraction); higher = more cells survive
Compound in the assay “Bortezomib + AZD7762”: CC(C)C[C@H](NC(=O)[C@H](Cc1ccccc1)NC(=O)c1cnccn1)B(O)O [Bortezomib] + NC(=O)Nc1cc(-c2cccc(F)c2)sc1C(=O)N[C@H]1CCCNC1 [AZD7762] (partner 0.2 µM)
The conditions noted are these: first compound 0.000632 µM. The procedure, abridged:
(§1)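 The day after seeding in 1536-well plates, lung cancer cell lines were treated by pin tool with a single drug, or with a fixed anchor-drug dose together with five library-drug doses (not always all listed) in √10 steps. After 5 days, a combined fix-and-stain solution (final 0.05% Triton X-100, 1% formaldehyde, 1 ug/ml Hoechst) was added. Nuclei counted on 4× images gave relative viability as treated counts over vehicle counts, reported as the median of duplicate plates.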

Compound in the assay “Bortezomib + Tozasertib”: CC(C)C[C@H](NC(=O)[C@H](Cc1ccccc1)NC(=O)c1cnccn1)B(O)O [Bortezomib] + Cc1cc(Nc2cc(N3CCN(C)CC3)nc(Sc3ccc(NC(=O)C4CC4)cc3)n2)n[nH]1 [Tozasertib] (partner 0.1 µM)
In a few lines:
as §1

Compound in the assay “Bortezomib + Crizotinib”: CC(C)C[C@H](NC(=O)[C@H](Cc1ccccc1)NC(=O)c1cnccn1)B(O)O [Bortezomib] + C[C@@H](Oc1cc(-c2cnn(C3CCNCC3)c2)cnc1N)c1c(Cl)ccc(F)c1Cl [Crizotinib] (partner 1 µM)
The conditions noted are these: first compound 0.0002 µM. The procedure, abridged: as §1

Compound in the next assay: CC(C)C[C@H](NC(=O)[C@H](Cc1ccccc1)NC(=O)c1cnccn1)B(O)O [Bortezomib]
Particulars: 0.0002 µM. The procedure, abridged: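 Viability was read as treated-well nuclei divided by vehicle-well nuclei, using the median across plates. Lung cancer cell lines in 1536-well plates were kept overnight at 37 °C, pinned with five √10-spaced library-drug doses, and after 5 days were Hoechst-stained, imaged at 4× and counted in MetaXpress. Plates passed only with control CV below 25% and at least one doubling.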

Compound in the assay “Bortezomib + Olaparib”: CC(C)C[C@H](NC(=O)[C@H](Cc1ccccc1)NC(=O)c1cnccn1)B(O)O [Bortezomib] + O=C(c1cc(Cc2n[nH]c(=O)c3ccccc23)ccc1F)N1CCN(C(=O)C2CC2)CC1 [Olaparib] (partner 8 µM)
The conditions noted are these: first compound 0.002 µM. In a few lines: as §1

Compound in the assay “Bortezomib + Alpelisib”: CC(C)C[C@H](NC(=O)[C@H](Cc1ccccc1)NC(=O)c1cnccn1)B(O)O [Bortezomib] + Cc1nc(NC(=O)N2CCC[C@H]2C(N)=O)sc1-c1ccnc(C(C)(C)C(F)(F)F)c1 [Alpelisib] (partner 2 µM)
Particulars: first compound 0.002 µM. In a few lines: as §1

Compound in the assay “Bortezomib + OSI-027”: CC(C)C[C@H](NC(=O)[C@H](Cc1ccccc1)NC(=O)c1cnccn1)B(O)O [Bortezomib] + COc1cccc2cc(-c3nc([C@H]4CC[C@H](C(=O)O)CC4)n4ncnc(N)c34)[nH]c12 [OSI-027] (partner 0.5 µM)
The conditions noted are these: first compound 0.0002 µM. In a few lines: as §1

Compound in the assay “Bortezomib + Linsitinib”: CC(C)C[C@H](NC(=O)[C@H](Cc1ccccc1)NC(=O)c1cnccn1)B(O)O [Bortezomib] + C[C@]1(O)C[C@@H](c2nc(-c3ccc4ccc(-c5ccccc5)nc4c3)c3c(N)nccn32)C1 [Linsitinib] (partner 1 µM)
Particulars: first compound 0.000632 µM. In a few lines:
as §1

As for H3255, in the assay with Bortezomib + AZD7762, the relative viability came to 0.962.
As for HCC-44, the relative viability with Bortezomib + Tozasertib (first compound 0.000632 µM) came to 0.978.
Consider HOP-62, for which the relative viability with Bortezomib + Crizotinib amounted to 0.978.
With LCLC-103H, the relative viability in the assay with Bortezomib + Tozasertib (first compound 0.0002 µM) stood at 0.542.
For LU99A, the relative viability with Bortezomib stood at 0.954.
For LXF-289, the relative viability with Bortezomib + Olaparib came out at 1.01.
In the case of NCI-H2085, the relative viability in the assay with Bortezomib + Alpelisib was 0.919.
Turning to PC-14, the relative viability with Bortezomib + OSI-027 turned out to be 0.919.
On to RERF-LC-KJ, for which the relative viability with Bortezomib + Linsitinib turned out to be 0.978.

The values above are taken from the supplement of paper PMC10307832.
